According to patent publication US5883243A, “Non-reducing saccharides, their preparations and uses” (Kabushiki Kaisha Hayashibara Seibutsu Kagaku Kenkyujo, priority 1997, dated 1999):

Test system: crude glucosyltransferase specimen derived from Streptococcus sobrinus strain (ATCC 27351)
Experiment: Inhibition of insoluble glucan formation by glucosyltransferase from dental caries-inducing microorganism
Type: biochemical
Conditions: sucrose plus test saccharide (one ml of one w/v % each), pH 6.8, 37° C., 16 hours
Method: To a mixture solution consisting of one ml of one w/v % sucrose solution, one ml of one w/v % of a test saccharide solution, and 1.5 ml of 0.1M phosphate buffer (pH 6.8) was added 0.5 ml solution containing a crude glucosyltransferase specimen in a total protein content of 10 mg, and the mixture solution was placed in a small test tube which was then fixed and slanted to give a grade 30 degrees and allowed to react at 37° C. for 16 hours. The reaction mixture was transferred gently to another test tube and mixed with a solution obtained by washing carefully with 4 ml water the remaining substances adhered to the inner walls of the small test tube, and the mixture solution was centrifuged to obtain a precipitate as a non-adsorbed glucan. The amounts of the adsorbed- and non-adsorbed glucans thus obtained were respectively quantified by the anthrone-sulfuric acid method, and the total amount of them was regarded as the amount of the formed insoluble glucans. As a control system, a reaction system using water in place of the test saccharide solution, i.e. a reaction system using sucrose as a saccharide, was provided. […]

Compound: OC[C@H]1O[C@H](OC[C@H]2OC(O)[C@H](O)[C@@H](O)[C@@H]2O)[C@H](O)[C@@H](O)[C@@H]1O (some centres unmarked) [Isomaltose, isomaltose, reference compound]
- Yield of non-adsorbed glucans (sucrose alone 923): 305 µg/mL
- Yield of adsorbed glucans (sucrose alone 1,160): 67 µg/mL
